Laboratory results: patent publication US20010056085A1, “Methods of using vesicant drug formulations” (priority 1996, published 2001)

Legend:
[1] = Half-life of ADR destruction by UVA light in the presence of test compounds (decrease in absorbance at 480 nm); assay type: physicochemical; conditions: for Half-Life of ADR Destruction, 100 μM Test Compound / Half-Life of ADR Destruction, 100 μM Test Compound and 0.5 μM Riboflavin: UVA light
[2] = Effect of UVA irradiation on the absorbance spectrum of DOX (350-600 nm; KDOX at 480 nm); assay type: physicochemical; conditions: 5 mM DABCO, 20 μM DOX
[3] = 100 μM test compound with 0.5 μM riboflavin

| Compound | Half-Life of ADR Destruction, 100 μM Test Compound ([1]; 100 μM test compound alone) | Half-Life of ADR Destruction, 100 μM Test Compound and 0.5 μM Riboflavin [1, 3] | further results |
| --- | --- | --- | --- |
| [O-][S+](c1ccccc1)c1ccccc1 | 50.2 min | 43.0 min |  |
| c1ccc2c(c1)[nH]c1ccccc12 |  |  | Half-Life of ADR Destruction, 100 μM Test Compound ([1]; test compound alone, +4% DMSO): 27.4 min |
| Cc1cccc(C)c1N |  | 33.5 min |  |
| NCCc1c[nH]c2ccccc12 |  | 33.5 min |  |
| NCC(O)c1ccccc1 (stereo not drawn) |  | 75.3 min |  |
| Nc1ccc(-c2ccccc2)cc1 |  | 5.68 min |  |
| COc1cc(C=CC(=O)O)cc(OC)c1OC | 43.0 min | 11.6 min |  |
| C=CCc1ccc2c(c1)OCO2 | 50.2 min | 37.6 min |  |
| COc1ccc(CCN)cc1 | 60.2 min | 33.9 min |  |
| O=C(O)CCc1ccccc1 | 60.2 min | 43.0 min |  |
| COc1ccc(N)cc1 |  | 50.2 min |  |
| CN(C)Cc1c[nH]c2ccccc12 |  | 8.36 min |  |
| Nc1ccc(C(F)(F)F)cc1 |  | 12.0 min |  |
| O=C(O)COc1ccc(Cl)cc1Cl | 60.2 min | 43.0 min | half-life (FIG. 32) ([1]; compound alone): 60.2; half-life (FIG. 32) in the presence of riboflavin ([1]; compound in combination with riboflavin): 43.0 |
| C[S+]([O-])c1ccccc1 (stereo not drawn) | 42.0 min | 33.5 min |  |
| CNc1ccccc1 |  | 100.3 min |  |
| 4-Hydroxyquinolinone | 21.5 min | 15.8 min |  |
| Nc1ccc(O)cc1 |  | 301.0 min |  |
| NCCc1ccccc1 |  | 50.2 min |  |
| Nc1ccc2c(c1)Cc1ccccc1-2 |  | 25.1 min |  |
| Nc1cccc(C(F)(F)F)c1 |  | 18.8 min |  |

| Compound | Half-Life of ADR Destruction, 100 μM Test Compound ([1]; 100 μM test compound alone) | Half-Life of ADR Destruction, 100 μM Test Compound and 0.5 μM Riboflavin [1, 3] | further results |
| --- | --- | --- | --- |
| CN(C)c1ccccc1 |  | 150.5 min |  |
| C1CN2CCN1CC2 |  |  | effect on destruction of DOX by FAD and UVA ([2]; 20 μM FAD in PBS lacking Ca2+ and Mg2+): considerably enhanced the effect of FAD-UVA on DOX; effect on destruction of DOX by riboflavin and UVA ([2]; 2 or 20 μM riboflavin in PBS): further accelerates the destruction of DOX |
| COc1ccc(C(=O)c2ccccc2)cc1 | 37.6 min | 25.1 min |  |
| CCc1ccccc1N |  | 17.7 min |  |
| COc1cc(/C=C/CO)cc(OC)c1O[C@@H]1O[C@H](CO)[C@@H](O)[C@H](O)[C@H]1O | 50.2 min | 37.6 min |  |
| CN[C@@H](Cc1c[nH]c2ccccc12)C(=O)O |  | 10.4 min |  |
| Cc1ccccc1N |  | 18.8 min |  |
| Nc1ccccc1O |  | 100.3 min |  |
| O=C1c2ccccc2C(=O)c2ccccc21 |  |  | Half-Life of ADR Destruction, 100 μM Test Compound ([1]; test compound alone, +4% DMSO): 3.27 min; Half-Life of ADR Destruction, 100 μM Test Compound and 0.5 μM Riboflavin ([1]; with 0.5 μM riboflavin, +4% DMSO): 1.62 min |
| Nc1ccccc1 |  | 15.9 ± 10.3 min |  |
| Nc1ccc(-c2ccc(N)cc2)cc1 |  | 50.2 min |  |
| Nc1cccc2c1Cc1ccccc1-2 | 60.2 min | 43.0 min |  |
| Cc1cc(C)c(N)cc1C |  | 20.1 min |  |
| COc1ccccc1C(=O)O | 43.0 min | 33.5 min |  |
| Nc1ccc(Oc2ccc(N)cc2)cc1 |  | 60.2 min |  |
| Nc1ccc([N+](=O)[O-])cc1 |  | 17.7 min |  |
| O=C1c2ccccc2C(=O)c2cc(S(=O)(=O)O)ccc21 | 0.124 min |  |  |
| NCCc1ccc(N)cc1 | 46.6 ± 5.1 min | 6.56 ± 2.28 min |  |
| Oc1cc(O)c2ccccc2n1 | 60.2 min | 60.2 min |  |
| c1ccc2[nH]ccc2c1 | 50.2 min | 15.8 min |  |
